{"source": "PubChem BioAssay AID590", "about": "(National Center for Advancing Translational Sciences (NCATS), 2007)", "note": "Only a part is listed here, and it is no random draw. Records with an inconclusive call do not appear. Calls of active or inactive are those of the source. Cut-off read from the data, not from the text of the source: active = max dye-equivalent concentration above about 10 nM; inconclusive = mostly about 1.1 nM to 9.6 nM; inactive = weaker than that."}
{"test": "qHTS Assay for Spectroscopic Profiling in A350 Spectral Region", "conditions": "Compound autofluorescence, 340/450 nm, Alexa 350 dye-equivalents", "description": "NIH Molecular Libraries Screening Centers Network [MLSCN]\nNIH Chemical Genomics Center [NCGC]\nOccasionally, the artifactual effect may originate from the compounds own spectral or other biophysical properties which generally tend to track its assay concentration. Pre-screening/profiling the library with respect to the compounds spectral properties should help one exclude false positives early on. While the most informative fluorescent profiling data set is obtained by performing a full excitation and emission scan of each well by using a monochromator-based plate reader, such an approach is practical only on a very limited scale as scanning each well requires long time. An alternative approach, applied here, is to perform plate reader scans using selected excitation and emission wavelength pairs to generate a multidimensional relational database that correlates compound concentration and the respective relative fluorescence intensity at a given wavelength set. A standard curve of Alexa 350 (A 350) present on each plate as six-point concentration series, was used to compute a normalized fluorescence response, termed dye-equivalent concentration, for each compound at each concentration.\nNCGC Assay Protocol Summary:\n100 mM Tris buffer, pH 8.0\nThe wells in columns 1 through 4 of a Kalypsys polypropylene 1536-well compound plate were filled with standard solutions of fluorophore corresponding to the spectral region of interest. Solutions of A 350 were placed in the following wells: I1, J1: 3 mM, I2, J2: 300 uM, I3, J3: 30 uM, I4, J4: zero (DMSO), K1, L1: 3 uM, K2, L2: […], K3, L3: 300 nM, K4, L4: zero (DMSO).\nSix uL of buffer were dispensed to 1536-well Greiner black plates. Compounds and dye standards (23 nL) were transferred via Kalypsys PinTool. The plates were incubated for 15 min at room temperature, and then read on ViewLux (Perkin-Elmer) High-throughput CCD imager using 340 nm and 450 nm excitation and emission filter set.\nKeywords: NIH Roadmap, MLSCN, MLI, MLSMR, qHTS, NCGC, A350, A-350, Fluorescent Profiling."}
{"smiles": "N/C(=N\\O)c1c(N)no[n+]1[O-]", "outcome": "inactive"}
{"smiles": "CCC(CO)(C(=O)OC1CN2CCC1CC2)c1ccccc1", "note": "(stereo unspecified)", "outcome": "inactive"}
{"smiles": "O=C(O)C1(Nc2ccccc2)CCN(Cc2ccccc2)CC1", "outcome": "inactive"}
{"smiles": "CCOc1ncccc1C(=O)NCC1(N2CCOCC2)CCCCC1", "outcome": "inactive"}
{"smiles": "O=C(OC1CN2CCC1CC2)C1c2ccccc2Oc2ccccc21", "note": "(stereo unspecified)", "outcome": "inactive"}
{"smiles": "N#CC1(Nc2ccccc2)CCN(CCc2ccccc2)CC1", "outcome": "inactive"}
